# Reported properties for industrial, environmental and drug-like chemicals

Source: data files of OPERA 2.9 (Mansouri et al.), github.com/kmansouri/OPERA.

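These are experimental values that the OPERA curators gathered from public databases to train and test their QSAR models. One number stands for a compound and property, with no spread given. Method, purity and exact conditions of the single measurements are not given. Where a salt, mixture or single isomer is drawn, the source does not say that exactly this form was tested. Some entries may be limits or estimates that an upstream database listed as plain numbers.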

The melting point is given in degrees Celsius.
Boiling points are in °C, nominally at 760 mmHg.
logP is the log10 of the octanol-water partition coefficient; higher is more lipophilic.
Water solubility is log10 of mol/L, nominally at 25 °C; higher is more soluble.
Vapor pressures (log10 mmHg) refer to near room temperature, 15 to 30 °C; higher is more volatile.
Henry's law constant (air-water partitioning) is log10 of atm·m3/mol, nominally at 25 °C.
The unbound fraction in human plasma runs from 0 (all bound) to 1 (all free).
Intrinsic clearance (human, µL/min per 10^6 hepatocytes): higher is faster turnover, and 0 stands for none detected.

For C#CC(C)(C)N [3-Butyn-2-amine, 2-methyl-] the data give log Kow 0.29 and log VP 1.772 (log10 mmHg). For CCCCCCN(CCCCCC)CCCCCC [N,N-Dihexyl-1-hexanamine] the data give log Kow 4.47 and water solubility -4.81 (log10 mol/L) and log VP -2.567 (log10 mmHg). CC(C)Nc1ccc(NC(C)C)c2c1C(=O)c1ccccc1C2=O [1,4-bis(n-isopropylamino)anthraquinone] is reported with plasma fu 0.00728 and Clint 0 µL/min/10^6 cells. For O=C(CC(C(=O)OC1CCCCC1)S(=O)(=O)[O-])OC1CCCCC1.[Na+] (stereo not drawn) [Dicyclohexyl sodium sulfosuccinate] the data give MP 201.5 °C and water solubility -0.506 (log10 mol/L). Listed for FC(F)=C(F)C(F)(F)OC(F)(F)C(F)(F)C(F)(F)F: MP -83.5 °C and bp 60.8 °C and log Kow 4.7 and water solubility -5.945 (log10 mol/L). For CCCCCCCCCCCCCCCCCC(=O)OCC(COCC(COC(=O)CCCCCCCCCCCCCCCCC)(COC(=O)CCCCCCCCCCCCCCCCC)COC(=O)CCCCCCCCCCCCCCCCC)(COC(=O)CCCCCCCCCCCCCCCCC)COC(=O)CCCCCCCCCCCCCCCCC [Dipentaerythritol hexastearate] the data give MP 75.55 °C and water solubility -10.04 (log10 mol/L).

Listed for NC(=O)c1nc(-c2ccccc2)n(-c2ccc(Cl)c(COCC(F)(F)C(F)(F)F)c2)n1 [Flupoxam]: log Kow 3.27 and log Henry constant -7.041 (log10 atm·m3/mol). Listed for CCC1(CO)COCOC1 [(5-Ethyl-1,3-dioxan-5-yl)methanol]: bp 239.2 °C and log Kow 0.19. Cc1cc(Nc2cc(S(=O)(=O)[O-])c(N)c3c2C(=O)c2ccccc2C3=O)cc(S(=O)(=O)NCCO)c1C.[Na+] has MP 333 °C and log Kow -0.05 and water solubility -2.675 (log10 mol/L). The entry for CC(C)(C)CCCCC(=O)O [Neononanoic acid] lists MP -73 °C and log Kow 3.13 and water solubility -2.475 (log10 mol/L) and log VP -1.604 (log10 mmHg). CCC1=NCCO1 [Oxazole, 2-ethyl-4,5-dihydro-] has log Kow 0.264 and log VP 0.079 (log10 mmHg). CON=C(C)Cc1c(Cl)cc(Cl)cc1Cl [1-(2,4,6-Trichlorophenyl)-2-propanone O-methyloxime] has bp 280.9 °C and log Kow 4.5 and water solubility -4.417 (log10 mol/L) and log VP -3.258 (log10 mmHg).

CCCCCCOC(=O)/C=C/C(=O)OCCCCCC [Dihexyl (2E)-2-butenedioate] has MP 10 °C and water solubility -6.278 (log10 mol/L) and log VP -3.648 (log10 mmHg). CCN(CC)c1ccc2c(c1)Oc1cc(N(CC)CC)ccc1C21OC(=O)c2ccccc21 [C.I. Solvent Red 49] has MP 140.1 °C and log Kow 3.649 and water solubility -1.962 (log10 mol/L). For Oc1ccc2ccccc2c1C=NN=Cc1c(O)ccc2ccccc12 the data give MP 320 °C and log Kow 6.269. The entry for Cc1nc2n(c(=O)c1CCN1CCC(/C(=N/O)c3ccc(F)cc3F)CC1)CCCC2 [Risperidone Z-oxime] lists MP 194.6 °C and water solubility -3.551 (log10 mol/L) and log VP -8.106 (log10 mmHg). CCCC(C#N)CCC [2-Propylvaleronitrile] has log Kow 2.71 and water solubility -2.717 (log10 mol/L) and log VP -0.399 (log10 mmHg). CC(C)c1ccc2sc3ccccc3c(=O)c2c1 [2-(Propan-2-yl)-9H-thioxanthen-9-one] is reported with log Kow 5.59 and water solubility -5.874 (log10 mol/L) and log VP -6.494 (log10 mmHg).

The entry for CC(=O)N(O)CCCCCNC(=O)CCC(=O)N(O)CCCCCNC(=O)CCC(=O)N(O)CCCCCN [Deferoxamine] lists log Kow -2.2 and plasma fu 0.9. For CCCc1ccc(-c2ccc(-c3cc(F)c(C(F)(F)Oc4cc(F)c(F)c(F)c4)c(F)c3)c(F)c2)cc1 the data give MP 83.6 °C and log VP -9.84 (log10 mmHg). Listed for Cc1nn(-c2cccc(Cl)c2)c(=O)[c-]1/N=N/c1cc(S(N)(=O)=O)ccc1[O-].Cc1nn(-c2cccc(Cl)c2)c(=O)[c-]1/N=N/c1cc(S(N)(=O)=O)ccc1[O-].[Co+3].[Na+]: log Kow 3.117 and water solubility -2.576 (log10 mol/L). Listed for Nc1ccc(C(=O)NCCC(=O)O)cc1 [N-(4-Aminobenzoyl)-beta-alanine]: log Kow -1.19 and log VP -6.138 (log10 mmHg). The entry for CC1(C)CO1 [Oxirane, 2,2-dimethyl-] lists MP -66.1 °C and log VP 2.464 (log10 mmHg). For CN(C)CCOCCO [2-[2-(Dimethylamino)ethoxy]ethanol] the data give log Kow -0.994 and log VP -1.084 (log10 mmHg).

O=C(Cl)COc1ccc(Cl)cc1Cl [(2,4-Dichlorophenoxy)acetyl chloride] is reported with MP 5.8 °C and log Kow 0.915 and water solubility -2.904 (log10 mol/L) and log VP -3.625 (log10 mmHg). Listed for CCCCOC(=O)NC(=S)SCCCC [Butyl N-[(butylthio)thioxomethyl]carbamate]: log Kow 4.69 and water solubility -5.13 (log10 mol/L) and log VP -2.444 (log10 mmHg). Cn1sccc1=O [2-Methyl-3(2H)-isothiazolone] has MP 47.5 °C and log Kow -0.33 and water solubility 0.669 (log10 mol/L) and log VP -2.129 (log10 mmHg). For CC(C)CCCCCCOP(=O)(O)O [Phosphoric acid, isononyl ester] the data give bp 160 °C and log Kow 1.09 and log VP -6.011 (log10 mmHg). C=C(C)C(=O)OCC(C)O (stereo not drawn) [2-Hydroxypropyl 2-methylacrylate] is reported with water solubility -0.572 (log10 mol/L) and log VP -1.143 (log10 mmHg).

The last 3 entries again:

Cn1sccc1=O [2-Methyl-3(2H)-isothiazolone] is reported with MP 47.5 °C and log Kow -0.33 and water solubility 0.669 (log10 mol/L) and log VP -2.129 (log10 mmHg).
CC(C)CCCCCCOP(=O)(O)O [Phosphoric acid, isononyl ester] is reported with bp 160 °C and log Kow 1.09 and log VP -6.011 (log10 mmHg).
C=C(C)C(=O)OCC(C)O (stereo not drawn) [2-Hydroxypropyl 2-methylacrylate] is reported with water solubility -0.572 (log10 mol/L) and log VP -1.143 (log10 mmHg).